# Paper PMC8536600, “Ruxolitinib exposure in patients with acute and chronic graft versus host disease in routine clinical practice—a prospective single-center trial” (Cancer Chemotherapy and Pharmacology, 2021)
# Where two headings read alike, the source gives them in different places.
# Tests used:
# [1] = Clinical and laboratory adverse events (CTCAE v5.0) in relation to Ruxolitinib trough serum concentration; type: in vivo, human
# Method: Adverse events (AE) were registered by questioning patients at each sampling time point. Patients were specifically asked for AE occurring in ≥ 1/100 patients according to the prescribing information. Clinical AE were graded according to the […] (CTCAE) Version 5.0 [26]. Further recorded patient data included age, sex, height, weight, ethnicity, smoking status, dosing regimen, and comedication. Relevant laboratory parameters were recorded in parallel to blood sampling (estimated glomerular filtration rate (eGFR), serum creatinine, serum albumin, total cholesterol, total bilirubin, hemoglobin, white blood cell count, absolute neutrophil count, platelet count, aspartate, and alanine aminotransferase).
# Data were collected and processed using Microsoft Excel 2016 Version 16.0 (Microsoft Corporation, Redmond, WA, USA). Statistical calculations and visualization of results were performed with R Studio Version 1.2.5042 (RStudio Incorporation, Boston, MA, USA) and running R version 4.0.5 (R Foundation for Statistical Computing, Vienna, Austria, 2020). To reduce bias caused by the unbalanced number of samples per patient, all Ruxolitinib trough serum concentrations of the same patient at the same dosage were summarized into an individual mean trough serum concentration for descriptive statistical analysis. […]
# [2] = cited from earlier work
structure (smiles),measurement,setting,value
N#CC[C@H](C1CCCC1)n1cc(-c2ncnc3[nH]ccc23)cn1 [Ruxolitinib],"Trough serum concentration threshold (optimal cut-off, Youden's Index) from ROC analysis",[1]; risk to experience at least 3 AE of CTCAE grade 1 or higher,21.1 ng/mL
same,Odds ratio to experience at least three AE of any grade,"[1]; trough concentrations above 21.1 ng/mL, 90% confidence interval 3.3-21.4",8.8
same,Median Css min,"[2]; 33 samples of 19 patients, underlying disease and dosing regimen unknown",11 ng/mL
same,Css min,"[2]; eight healthy individuals, 30 mg daily",approximately 20 ng/mL
same,Css min,"[2]; one MF patient, 5 mg daily",15.8 ng/mL
